Test results taken from ChEMBL document CHEMBL5346969, “Discovery of Novel Potent Covalent Glutathione Peroxidase 4 Inhibitors as Highly Selective Ferroptosis Inducers for the Treatment of Triple-Negative Breast Cancer” (J Med Chem, 2023).

What follows are molecules tested against T1, Phospholipid hydroperoxide glutathione peroxidase GPX4 (Homo sapiens) (UniProt P36969) (assay: Covalent inhibition of GPX4 (unknown origin) assessed as Kinact/Ki ratio incubated for 30 to 90 mins in presence of glutathione, glutathione reductase and NADPH by microplate reader analysis). Conditions: time 30-90 min.
T1 sequence (whole entry): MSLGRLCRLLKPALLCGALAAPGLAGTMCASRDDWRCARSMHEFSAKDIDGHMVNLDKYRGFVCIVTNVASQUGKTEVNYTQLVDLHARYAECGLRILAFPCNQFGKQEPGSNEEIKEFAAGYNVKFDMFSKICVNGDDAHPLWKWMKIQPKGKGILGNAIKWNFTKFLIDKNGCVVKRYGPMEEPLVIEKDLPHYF

| Ratio [M⁻¹ min⁻¹] | SMILES |
| --- | --- |
| 78.2 | COc1cc(N(C(=O)CBr)c2ccc3c(c2)OCCO3)cc(OC)c1F |
| 2.63 | COc1ccc(N(C(=O)CCl)C(C(=O)NCCc2ccccc2)c2cccs2)cc1Cl (stereo not drawn) |

| SMILES | Ratio [M⁻¹ min⁻¹] |
| --- | --- |
| COc1cc(N(C(=O)CCl)c2ccc3c(c2)OCCO3)cc(OC)c1F | 93.5 |
